Data from US20260062422A1 (Halda Therapeutics OpCo, Inc., priority 2022, published 2026).

Columns and labels:
[1] = target: BRD4-BD1 (Homo sapiens, UniProt O60885); assay: bromoKdELECT assay for binding affinity to BRD4-BD1; details: Table 6
Protocol: (§1) Compounds were tested using a bromoKdELECT assay. T7 phage strains displaying bromodomains were grown in parallel in 24-well blocks in an E. coli host derived from the BL21 strain. E. coli were grown to log-phase and infected with T7 phage from a frozen stock (multiplicity of infection=0.4) and incubated with shaking at 32° C. until lysis (90-150 minutes). The lysates were centrifuged (5,000×g) and filtered (0.2 μm) to remove cell debris. Streptavidin-coated magnetic beads were treated with biotinylated small molecule or acetylated peptide ligands for 30 minutes at room temperature to generate affinity resins for bromodomain assays. The liganded beads were blocked with excess biotin and washed with blocking buffer (SeaBlock (Pierce), 1% BSA, 0.05% Tween 20, 1 mM DTT) to remove unbound ligand and to reduce nonspecific phage binding. Binding reactions were assembled by combining bromodomains, liganded affinity beads, and test compounds in 1× binding buffer (17% SeaBlock, 0.33×PBS, 0.04% Tween 20, 0.02% BSA, 0.004% Sodium azide, 7.4 mM DTT). Test compounds were prepared as 1000× stocks in 100% DMSO. Kds were determined using an 11-point 3-fold compound dilution series with one DMSO control point. All compounds for Kd measurements are distributed by acoustic transfer (non-contact dispensing) in 100% DMSO. The compounds were then diluted directly into the assays such that the final concentration of DMSO was 0.09%. All reactions performed in polypropylene 384-well plates. Each was a final volume of 0.02 ml. The assay plates were incubated at room temperature with shaking for 1 hour and the affinity beads were washed with wash buffer (1×PBS, 0.05% Tween 20). The beads were then resuspended in elution buffer (1×PBS, 0.05% Tween 20, 2 M non-biotinylated affinity ligand) and incubated at room temperature with shaking for 30 minutes. The bromodomain concentration in the eluates was measured by qPCR.

[2] = target: BRD4-BD2 (Homo sapiens, UniProt O60885); assay: bromoKdELECT assay for binding affinity to BRD4-BD2; details: Table 7
Protocol: as §1, with “2 μM” for “2 M”

[3] = system: T47D cells; assay: Cellular growth inhibition assay for T47D cells, CellTiter-Glo; details: 72 hours treatment, CellTiter-Glo 2.0 cell viability
Protocol: T47D cells were purchased from American Type Cell Culture (ATCC Cat #HTB-133) and then seeded on poly-D-lysine coated, black clear-bottom 384-well plates at 3000/well in 25 μL Dulbecco's Modified Eagle Medium (DMEM) supplemented with 10% w/w Fetal bovine serum (FBS), 0.2 units/mL recombinant human insulin (Gibco Cat #12585014), and 1% w/w Pen-Strep. Pen-Strep is a commercially available mixture of penicillin G and streptomycin, which is used in mammalian cell culture media to prevent bacterial contamination. Dulbecco's Modified Eagle Medium (DMEM) supplemented with 10% w/w fetal bovine serum (FBS), 0.2 units/mL recombinant human insulin, and 1% w/w Pen-Strep is herein referred to as Treatment Medium. Following seeding of cells in the plates, the plates were spun at 300×g for 30 seconds, then equilibrated to room temperature for 30 minutes, and then deposited in a humidified tissue culture incubator maintained at 37° C. with 5% CO2.
At 24 hours after seeding of the cells, dilutions of test compound were prepared in DMSO and dissolved in Treatment Medium, to achieve a final DMSO concentration of 0.5% w/w, thereby providing the Test Compound Solution. A 25 μL aliquot of the Test Compound Solution was added to cells in the well plates. An equal volume of a solution containing DMSO and Treatment Medium was used as a negative control. Following treatment of cells with Test Compound Solution or said equal volume of a solution containing DMSO and Treatment Medium, the plates were spun at 300×g for 30 seconds, and then left in an incubator for 72 hours.
At the end of the treatment duration, cell viability was quantified with CellTiter-Glo 2.0 reagent (Promega Cat #G9243). For this purpose, plates were equilibrated to room temperature for 30 minutes, and then 25 μL of CellTiter-Glo 2.0 reagent was added to cells in the plate wells. […] Following incubation, the plates were spun at 3000×g for 30 seconds, then sealed with an optical adhesive cover, and luminescence readings were measured with an EnVision Plate Reader (Perkin Elmer).
Data was normalized using zero luminescence for baseline. […]

SMILES	Kd [1] [nM]	Kd [2] [nM]	GI50 [3] [nM]
CCNC(=O)C[C@@H]1N=C(c2ccc(N3CC4(C3)CN(c3ncc(C(=O)N[C@H]5C(C)(C)[C@H](Oc6ccc(C#N)c(Cl)c6)C5(C)C)cn3)C4)cc2)c2c(sc(C)c2C)-n2c(C)nnc21	50 to 500	50 to 500	500 to 1500
CCNC(=O)C[C@@H]1N=C(c2ccc(CC3CCN(c4ncc(C(=O)N[C@H]5C(C)(C)[C@H](Oc6ccc(C#N)c(Cl)c6)C5(C)C)cn4)CC3)cc2)c2c(sc(C)c2C)-n2c(C)nnc21	> 2500	> 2500	500 to 1500
CCNC(=O)C[C@@H]1N=C(c2ccc(CN3CCN(c4ncc(C(=O)N[C@H]5C(C)(C)[C@H](Oc6ccc(C#N)c(Cl)c6)C5(C)C)cn4)CC3)cc2)c2c(sc(C)c2C)-n2c(C)nnc21	50 to 500	50 to 500	< 500
